Assay results as given in patent US20260027116A1, “Methods of Treating Chronic Graft-Versus-Host Disease Following Allogeneic Hematopoietic Stem Cell Transplantation” (Kadmon Corporation, LLC, priority 2022, published 2026).

Tested on: chronic graft-versus-host disease (cGVHD)
Test: Example 1 phase IIa study: response per 2014 NIH cGVHD criteria (ORR, BOR, DOR, TTR, TTNT, FFS, OS, organ response)
Assay type: in vivo, human
Conditions: mITT, up to 64.2 months
From the text: Eligible patients were allogeneic bone marrow transplant or allogeneic hematopoietic cell transplant (alloHCT) recipients of age≥18 years with persistent cGVHD manifestations after having received one to three prior systemic lines of therapy and who were receiving corticosteroid treatment with or without a calcincurin inhibitor and/or concurrent extracorporeal photopheresis.
Inclusion criteria. Adult male and female subjects at least 18 years of age who had allogenic bone marrow transplant or hematopoietic stem cell transplantation. Received glucocorticoid therapy and calcineurin therapy or glucocorticoid therapy alone for cGVHD at study entry. Participants on calcineurin therapy only, without glucocorticoid therapy, were not eligible. Participants also received other therapies thought not to be immunosuppressive (such as extracorporeal photopheresis; ECP), were considered for enrollment in this study on a case-by-case basis. […] No more than 3 prior lines of treatment for cGVHD. Karnofsky Performance Scale of greater than (>) 40.
Exclusion Criteria. Participant who was pregnant or breastfeeding. Received an investigational GVHD treatment within 28 days of study entry. Had acute GVHD. Taken any medication known to be a moderate or strong inhibitor of the cytochrome (CY) P3A4 isozyme or any drugs that are moderate or strong CYP3A4 inducers. […]
(FIG. 1) Before enrollment of the subsequent cohort, safety data in each previous cohort were analyzed after eight patients reached two months of treatment to assure that there was no safety signal. […]
Progression was defined per the 2014 NIH cGVHD Consensus Criteria. […] Response was initially assessed after two cycles; however, this was amended to evaluate response on day 1 of each cycle, starting at cycle 2 day 1.
All responses were assessed by the investigators.
Assuming a best ORR of 25%, which was determined to be clinically meaningful, the study was expected to have approximately 90% probability to show a response in ≥2 patients per cohort. […]

CC(C)NC(=O)COc1cccc(-c2nc(Nc3ccc4[nH]ncc4c3)c3ccccc3n2)c1 [Belumosudil, 2-{3-[4-(1H-indazol-5-ylamino)-2-quinazolinyl]phenoxy}-N-(propan-2-yl) acetamide]
Percentage of Participants With Overall Response (95% CI) (Cohort 1, 200 mg QD): 65 (38-86%) percentage of participants
Percentage of Participants With Overall Response (95% CI) (Cohort 2, 200 mg BID): 69 (41-89%) percentage of participants
Percentage of Participants With Overall Response (95% CI) (Cohort 3, 400 mg QD): 57 (34-78%) percentage of participants
